{"source": "PubChem BioAssay AID485298", "about": "(National Center for Advancing Translational Sciences (NCATS), 2010)", "note": "Only a part is listed here, and it is no random draw. Calls of active or inactive are those of the source. Calls come from the whole dose curve; as a rule, active = well fitted activation curve with a large enough effect; inconclusive = small, poorly fitted or top-dose-only effect; inactive = no such curve, though single readings can be large or run the other way."}
{"assay": "qHTS Assay for Small Molecule Inhibitors of Mitochondrial Division or Activators of Mitochondrial Fusion;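 note: temperature-sensitive fusion mutants such as fzo1-1 at 37 °C on non-fermentable ethanol glycerol medium; % of control where 0% means no effect; nearly all actives have a fitted effect of over 45% in size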", "conditions": "S. cerevisiae fusion-defective mutant growth rescue, CellTiterGlo 48 h; series mostly up to 46.1 µM; growth rescue (activation): at the top concentration", "outline": "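Compounds are tested for their ability to restore growth of mitochondrial fusion-defective yeast strains at non-permissive 37C in YPEG medium over 48 hours. Viability is quantified by luciferase luminescence.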"}
{"smiles": "O=C(OC1CN2CCC1CC2)c1ccccc1", "note": "(stereo not given)", "growth rescue (activation)": "inactive: 2.81%"}
{"smiles": "CCC(=O)N1C2C3N(C(=O)CC)C1C1N(C(=O)CC)C(C(N1C(=O)CC)N3C(=O)CC)N2C(=O)CC", "growth rescue (activation)": "inactive: -0.0431%"}
{"smiles": "O=C(NC1CCS(=O)(=O)C1)NP(=S)(Oc1ccccc1)Oc1ccccc1", "note": "(stereo not given)", "growth rescue (activation)": "inactive: -1.2%"}
{"smiles": "CCNC(=S)/N=C(\\N)N[N+](=O)[O-]", "growth rescue (activation)": "inactive: 0.938%"}
{"smiles": "c1ccc(-c2nn[nH]n2)c(-c2nn[nH]n2)c1", "growth rescue (activation)": "inactive: -1.87%"}
{"smiles": "CCOC(=O)NC(Sc1ccccc1)C(Cl)(Cl)Cl", "note": "(stereo not given)", "growth rescue (activation)": "inactive: -5.1%"}
{"smiles": "Cc1ccc(NP(=O)(Oc2cccc(C)c2)Oc2cccc(C)c2)nc1", "growth rescue (activation)": "inactive: -4.08%"}
{"smiles": "CC(=O)Nc1ccc([As](=O)(O)O)c(O)c1", "growth rescue (activation)": "inactive: 0.0169%"}
{"smiles": "CC(=O)Nc1ccc(Oc2c([N+](=O)[O-])cc([N+](=O)[O-])cc2[N+](=O)[O-])cc1", "growth rescue (activation)": "inactive: 2.44%"}
{"smiles": "CC(=O)c1ccc(N2CC2c2ccncc2)cc1", "note": "(stereo not given)", "growth rescue (activation)": "inactive: -0.991%"}
{"smiles": "Cc1ccccc1CN(C)C(=O)COC(=O)C(O)(c1ccccc1)c1ccccc1", "growth rescue (activation)": "inactive: 17.6%"}
{"smiles": "C[C@@H]1C=CCP(=O)(Oc2ccccc2)O1", "note": "(stereo not given in full)", "growth rescue (activation)": "inactive: -12.1%"}
{"smiles": "C[C@H]1OP(=O)(Oc2ccccc2)C[C@@H]2O[C@@H]21", "note": "(stereo not given in full)", "growth rescue (activation)": "inactive: -3.68%"}
{"smiles": "CC(C)(C)C(=O)NC(Sc1ccccc1)C(Cl)(Cl)Cl", "note": "(stereo not given)", "growth rescue (activation)": "inactive: 17.2%"}
{"smiles": "O=P1(Nc2nc3ccc(Cl)cc3s2)COc2ccccc2O1", "note": "(stereo not given)", "growth rescue (activation)": "inactive: 4.93%"}
{"smiles": "CCOc1ccc(C2=NCC(CBr)S2)cc1", "note": "(stereo not given)", "growth rescue (activation)": "inactive: 0.506%"}
{"smiles": "c1nnnn1CCn1cnnn1", "growth rescue (activation)": "inactive: 1.47%"}
{"smiles": "O=P(Nc1nccs1)(c1ccccc1)c1ccccc1", "growth rescue (activation)": "inactive: -4.24%"}
{"smiles": "CC(C)C(=O)NC(Sc1ccccc1)C(Cl)(Cl)Cl", "note": "(stereo not given)", "growth rescue (activation)": "inactive: 3.85%"}
{"smiles": "Nc1ccc([As](=O)(O)c2ccc([N+](=O)[O-])cc2)cc1", "growth rescue (activation)": "inactive: 1.26%"}
{"smiles": "C(Cc1nn[nH]n1)Cc1nn[nH]n1", "growth rescue (activation)": "inactive: 2.83%"}
{"smiles": "O=C(OC1CN2CCC1CC2)c1cccc(Cl)c1", "note": "(stereo not given)", "growth rescue (activation)": "inactive: -2.04%"}
{"smiles": "O=[N+]([O-])c1ncn(CCn2cnc([N+](=O)[O-])n2)n1", "growth rescue (activation)": "inactive: -4.43%"}
{"smiles": "CC(=O)NC(SC(=S)N(C)C)C(Cl)(Cl)Cl", "note": "(stereo not given)", "growth rescue (activation)": "inactive: -27.8%"}
{"smiles": "O=[N+]([O-])c1ccc(O)c(/C=N/Nc2ccc([N+](=O)[O-])cc2[N+](=O)[O-])c1", "growth rescue (activation)": "inactive: -21.4%"}
{"smiles": "O=[As](O)(c1ccccc1)c1ccc(O)cc1", "growth rescue (activation)": "inactive: -3.32%"}
{"smiles": "O=P(Nc1nc2ccccc2s1)(c1ccccc1)c1ccccc1", "growth rescue (activation)": "inactive: 1.64%"}
{"smiles": "C[C@H]1OP(=O)(Oc2ccccc2)[C@H](O)[C@H](O)[C@H]1N=[N+]=[N-]", "note": "(stereo not given in full)", "growth rescue (activation)": "inactive: 0.5%"}
{"smiles": "CN(C)C1(CNC(=O)c2ccc(Cl)c(S(N)(=O)=O)c2)CCCCC1", "growth rescue (activation)": "inactive: 0.7%"}
{"smiles": "O=P(Nc1ccccn1)(c1ccc(Br)cc1)c1ccc(Br)cc1", "growth rescue (activation)": "inactive: -2.56%"}
